The list shows a part of the results, in another mix than the full data. The source made the active and inactive calls.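 How the source made its calls: active means membrane potential signal shifting up or down by more than 3 SD of buffer-only wells, on both duplicate plates; inactive means the rest.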
experiment: membrane potential modulation in parental HEK293, confirmation, counter-screen for TRPC6 inhibitor project, cell-based (AID 2780); conditions: parental HEK293 membrane potential dye fluorescence; at 10 µM;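 further: plate controls were buffer EC0 wells for no effect and acetylcholine ECmax wells for full effect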

Row | Compound | membrane potential signal change
1 | O=[N+]([O-])c1ccc(O)c(/C=N/Nc2ccc([N+](=O)[O-])cc2[N+](=O)[O-])c1 | active: -174%
2 | CN1CCCC(OC(=O)C(c2ccccc2)c2ccccc2)C1 (stereo not drawn) | active: 5.09%
3 | CCC1=CC2Cc3nc4ccc(Cl)cc4c(N)c3C(C1)C2 (stereo not drawn) | active: -258%
